Reference: US9034866B2 (Genentech, Inc., priority 2012, dated 2015)

Protein sequences, listed by entry. Tags and fused reporters are not part of them. Lines headed by an entry give the natural chain unless they say otherwise; changes in a name come on top.
UniProt Q99558: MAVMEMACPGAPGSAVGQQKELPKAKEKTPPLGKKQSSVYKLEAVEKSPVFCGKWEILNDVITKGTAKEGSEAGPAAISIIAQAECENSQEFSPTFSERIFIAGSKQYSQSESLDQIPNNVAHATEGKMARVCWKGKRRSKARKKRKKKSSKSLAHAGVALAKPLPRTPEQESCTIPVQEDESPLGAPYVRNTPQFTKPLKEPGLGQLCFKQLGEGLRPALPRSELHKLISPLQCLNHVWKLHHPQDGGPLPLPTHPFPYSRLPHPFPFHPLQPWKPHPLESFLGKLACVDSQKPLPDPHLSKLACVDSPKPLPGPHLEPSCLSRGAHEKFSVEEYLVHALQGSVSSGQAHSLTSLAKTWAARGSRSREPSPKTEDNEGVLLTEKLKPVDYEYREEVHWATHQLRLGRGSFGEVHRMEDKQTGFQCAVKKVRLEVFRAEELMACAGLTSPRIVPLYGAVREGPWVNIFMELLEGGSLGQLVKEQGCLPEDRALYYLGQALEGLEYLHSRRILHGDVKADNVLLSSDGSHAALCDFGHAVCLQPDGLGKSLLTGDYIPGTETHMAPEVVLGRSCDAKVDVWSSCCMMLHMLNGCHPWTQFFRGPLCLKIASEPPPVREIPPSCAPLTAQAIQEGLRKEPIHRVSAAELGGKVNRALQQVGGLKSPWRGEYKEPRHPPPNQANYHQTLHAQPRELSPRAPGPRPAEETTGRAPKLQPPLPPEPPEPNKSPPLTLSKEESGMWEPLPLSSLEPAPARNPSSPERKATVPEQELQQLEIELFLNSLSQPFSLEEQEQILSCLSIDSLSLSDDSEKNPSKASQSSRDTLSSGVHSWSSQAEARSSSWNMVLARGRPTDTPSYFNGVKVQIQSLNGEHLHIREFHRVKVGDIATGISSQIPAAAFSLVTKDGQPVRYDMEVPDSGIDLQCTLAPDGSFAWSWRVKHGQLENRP

biological target: nuclear factor-kappa B (NF-kB)-inducing kinase (NIK) (Homo sapiens (Human), UniProt Q99558); assay: NIK Enzyme Inhibition Assay (Transcreener ADP fluorescence polarization); assay type: biochemical; settings: read-out: NIK ADP-FP (Ki uM)
Description: NIK Enzyme Inhibition Assay: The ability of the nuclear factor-kappa B (NF-kB)-inducing kinase (NIK) to catalyze the hydrolysis of adenosine-5′-triphosphate (ATP) was monitored using the Transcreener ADP (adenosine-5′-diphosphate) assay (BellBrook Labs). Purified NIK (0.2-1 nM) derived from a baculovirus-infected insect cell expression system was incubated with test compounds for 1-3.5 hours in 50 mM 2-[4-(2-hydroxyethyl)piperazin-1-yl]ethanesulfonic acid buffer (pH 7.2) containing 10 mM MgCl2, 2 mM dithiothreitol, 10 uM ATP, 0.01% Triton X-100, 0.1% gamma-globulins from bovine blood, 1% dimethylsulfoxide (DMSO), 12 ug/mL ADP antibody and 4 nM ADP-AlexaFluor® 633 tracer. Reactions were quenched by the addition of 20 mM 2,2′,2″,2′″-(ethane-1,2-diyldinitrilo)tetraacetic acid and 0.01% Brij 35. The tracer bound to the antibody was displaced by the ADP generated during the NIK reaction, which causes a decrease in fluorescence polarization that was measured by laser excitation at 633 nm with a Fluorescence Correlation Spectroscopy Plus reader (Evotec AG).

SMILES | Ki
CN1CC[C@@](O)(C#Cc2cc3c(cc2F)OCCn2cc(C(N)=O)nc2-3)C1=O [Example 263] | 0.00024 µM
Cc1nnc([C@@](C)(O)C#Cc2ccc3c(c2)-c2nc(C(N)=O)sc2[C@](C)(F)CO3)o1 [Example 575, 4-(R)-fluoro-9-[3-(S)-hydroxy-3-(5-methyl-1,3,4-oxadiazol-2-yl)but-1-ynyl]-4-methyl-5H-[1]benzoxepino[5,4-d]thiazole-2-carboxamide] | > 1.2 µM and 0.53 µM
CN1CC[C@](O)(C#Cc2cc3c(cc2F)OCCn2cc(C(N)=O)nc2-3)C1=O [Example 264] | 0.21 µM

Values joined by “and” are separate entries in the source; they are usually repeats but may differ in a detail not shown here. Equal entries are not always repeated.
